Earlier results as cited in PMC5718994, “Synthesis and analytical characterization of new thiazol-2-(3H)-ones as human neutrophil elastase (HNE) inhibitors” (Chemistry Central Journal, 2017).

System: HNE
Settings: HNE inhibitor, Fig. 1; cited from earlier work

CC(C)(C)C(=O)Oc1ccc(S(=O)(=O)Nc2ccccc2C(=O)NCC(=O)O)cc1 [Sivelestat]
IC50: 44 nM
